Patent US20240360179A1, “STAPLED PEPTIDES AND METHODS THEREOF” (FOG PHARMACEUTICALS, INC., priority 2021, published 2024)

Protein sequences, listed by entry. Tags and fused reporters are not part of them.
UniProt P35222, whole entry: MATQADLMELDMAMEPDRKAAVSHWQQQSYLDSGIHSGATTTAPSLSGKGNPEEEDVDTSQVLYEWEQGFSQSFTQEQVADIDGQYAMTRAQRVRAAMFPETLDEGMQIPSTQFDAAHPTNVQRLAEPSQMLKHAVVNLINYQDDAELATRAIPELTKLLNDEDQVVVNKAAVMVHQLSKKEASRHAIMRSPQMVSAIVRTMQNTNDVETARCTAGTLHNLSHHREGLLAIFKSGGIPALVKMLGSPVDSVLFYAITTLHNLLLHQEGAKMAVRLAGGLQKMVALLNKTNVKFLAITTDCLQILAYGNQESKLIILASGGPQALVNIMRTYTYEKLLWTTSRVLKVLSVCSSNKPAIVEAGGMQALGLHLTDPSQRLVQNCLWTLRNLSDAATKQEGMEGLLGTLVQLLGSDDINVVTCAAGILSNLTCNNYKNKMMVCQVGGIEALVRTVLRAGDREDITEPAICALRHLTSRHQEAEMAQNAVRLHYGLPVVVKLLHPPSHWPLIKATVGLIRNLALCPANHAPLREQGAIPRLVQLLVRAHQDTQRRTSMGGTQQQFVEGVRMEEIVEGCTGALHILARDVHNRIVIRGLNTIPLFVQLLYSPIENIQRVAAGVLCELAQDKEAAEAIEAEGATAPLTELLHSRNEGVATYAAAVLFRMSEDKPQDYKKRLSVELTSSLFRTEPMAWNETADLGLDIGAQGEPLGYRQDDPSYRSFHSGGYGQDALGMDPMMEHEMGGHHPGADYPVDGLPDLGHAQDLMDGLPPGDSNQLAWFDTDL

Target: T1, full-length B-Catenin (Uniprot ID P35222) (Homo sapiens, UniProt P35222)
T1 construct: 10 nM full-length B-Catenin (Uniprot ID P35222)
Assay type: binding
Details: competition fluorescence polarization; read-out: beta-Catenin FP IC50

Substance | IC50 [µM]
Ac-PL3-Asp-Ile-B5-Asp-3COOHF-Aib-Ala-Phe-Lys*3-PyrS2-Phe-34ClF-GlnR*3-Thr-Glu-Leu-NH2 [I-1357] | < 0.05
Ac-PL3-Asp-Ile-B5-Asp-3COOHF-Aib-Ala-Phe-Lys*3-PyrS2-Phe-34ClF-GlnR*3-Thr-Lys-Ala-NH2 [I-1355] | < 0.05
Ac-PL3-Asp-Ile-B5-Asp-3COOHF-Aib-Ala-Phe-Lys*3-PyrS2-Phe-34ClF-GlnR*3-Thr-Lys-Leu-NH2 [I-1361] | < 0.05
Ac-PL3-Asp-Ile-B5-Asp-3COOHF-Aib-Ala-Phe-Lys*3-PyrS2-Phe-34ClF-GlnR*3-Thr-Ser-Ala-NH2 [I-1353] | < 0.05
Ac-PL3-Asp-Ile-B5-Asp-3COOHF-Aib-Ala-Phe-Lys*3-PyrS2-Phe-34ClF-GlnR*3-Thr-Ser-Leu-NH2 [I-1359] | < 0.05
Ac-PL3-Asp-Ile-B5-Asp-3COOHF-Aib-Ala-Phe-Lys*3-PyrS2-Phe-34ClF-GlnR*3-Val-Glu-Ala-NH2 [I-1252] | < 0.05
Ac-PL3-Asp-Ile-B5-Asp-3COOHF-Aib-Ala-Phe-Lys*3-PyrS2-Phe-34ClF-GlnR*3-Val-Glu-Leu-NH2 [I-1254] | < 0.05
Ac-PL3-Asp-Ile-B5-Asp-3COOHF-Aib-Ala-Phe-Lys*3-PyrS2-Phe-34ClF-GlnR*3-Val-Thr-Ala-NH2 [I-1256] | < 0.05
Ac-PL3-Asp-Ile-B5-Asp-3COOHF-Aib-Ala-Phe-Lys*3-PyrS2-Phe-34ClF-dGlnR*3-Ala-NH2 [I-1759] | 0.05 to 0.2
Ac-PL3-Asp-Ile-B5-Asp-3COOHF-Aib-Ala-Phe-Lys*3-PyrS2-Phe-34ClF-dGlnR*3-NH2 [I-1757] | < 0.05
Ac-PL3-Asp-Ile-B5-Asp-3COOHF-Aib-Ala-Phe-Lys*3-PyrS2-Phe-34ClF-dGlnR*3-NHMe [I-1758] | < 0.05
Ac-PL3-Asp-Ile-B5-Asp-3COOHF-Aib-Ala-Phe-Lys*3-PyrS2-Phe-34ClF-hGlnR*3-NH2 [I-1371] | < 0.05
Ac-PL3-Asp-Ile-B5-Asp-3COOHF-Aib-Ala-Phe-Lys*3-PyrS2-Phe-34MeF-GlnR*3-Ala-NH2 [I-1104] | < 0.05
Ac-PL3-Asp-Ile-B5-Asp-3COOHF-Aib-Ala-Phe-Lys*3-PyrS2-Phe-34MeF-GlnR*3-NH2 [I-1105] | < 0.05
Ac-PL3-Asp-Ile-B5-Asp-3COOHF-Aib-Ala-Phe-Lys*3-PyrS2-Phe-Phe-GlnR*3-NH2 [I-1594] | < 0.05
Ac-PL3-Asp-Ile-B5-Asp-3COOHF-Aib-Ala-Phe-Lys*3-PyrS2-hCbA-34ClF-GlnR*3-Ala-NH2 [I-1326] | < 0.05
Ac-PL3-Asp-Ile-B5-Asp-3COOHF-Aib-Ala-Phe-Lys*3-PyrS2-hCbA-BztA-GlnR*3-Ala-NH2 [I-1323] | < 0.05
Ac-PL3-Asp-Ile-B5-Asp-3COOHF-Aib-Ala-Phe-Lys*3-PyrS2-hCha-34ClF-GlnR*3-Ala-NH2 [I-1328] | < 0.05
Ac-PL3-Asp-Ile-B5-Asp-3COOHF-Aib-Ala-Phe-Lys*3-PyrS2-hCha-BztA-GlnR*3-Ala-NH2 [I-1325] | 0.05 to 0.2
Ac-PL3-Asp-Ile-B5-Asp-3COOHF-Aib-Ala-Phe-Lys*3-PyrS2-hCypA-34ClF-GlnR*3-Ala-NH2 [I-1327] | < 0.05
Ac-PL3-Asp-Ile-B5-Asp-3COOHF-Aib-Ala-Phe-Lys*3-PyrS2-hCypA-BztA-GlnR*3-Ala-NH2 [I-1324] | < 0.05
Ac-PL3-Asp-Ile-B5-Asp-3COOHF-Aib-Ala-Phe-Lys*3-PyrS2-hPhe-34ClF-GlnR*3-Ala-NH2 [I-1315] | < 0.05

Substance | IC50 [µM]
Ac-PL3-Asp-Ile-B5-Asp-3COOHF-Aib-Ala-Phe-Lys*3-PyrS2-hPhe-BztA-GlnR*3-Ala-NH2 [I-1311] | 0.05 to 0.2
Ac-PL3-Asp-Ile-B5-Asp-3COOHF-Aib-Ala-Phe-Lys*3-PyrS2-hhLeu-34ClF-GlnR*3-Ala-NH2 [I-1314] | < 0.05
Ac-PL3-Asp-Ile-B5-Asp-3COOHF-Aib-Ala-Phe-Lys*3-PyrS2-hhLeu-BztA-GlnR*3-Ala-NH2 [I-1310] | < 0.05
Ac-PL3-Asp-Ile-B5-Asp-3COOHF-Aib-Ala-Phe-Lys*3-PyrS2-hhSer-34ClF-GlnR*3-Ala-NH2 [I-1316] | 0.05 to 0.2
Ac-PL3-Asp-Ile-B5-Asp-3COOHF-Aib-Ala-Phe-Lys*3-PyrS2-hhSer-BztA-GlnR*3-Ala-NH2 [I-1313] | < 0.05
Ac-PL3-Asp-Ile-B5-Asp-3COOHF-Aib-Ala-Phe-Orn*3-PyrS2-Phe-34ClF-dGlnR*3-Ala-NH2 [I-1782] | < 0.05
Ac-PL3-Asp-Ile-B5-Asp-3COOHF-Aib-Ala-Phe-Orn*3-PyrS2-Phe-34ClF-dGlnR*3-NH2 [I-1779] | < 0.05
Ac-PL3-Asp-Ile-B5-Asp-3COOHF-Aib-Ala-Phe-Orn*3-PyrS2-Phe-34ClF-dGlnR*3-NHMe [I-1781] | < 0.05
Ac-PL3-Asp-Ile-B5-Asp-3COOHF-Aib-Ala-Phe-TriAzLys*3-PyrS2-3Thi-34ClF-sAla*3-NH2 [I-1089] | < 0.05
Ac-PL3-Asp-Ile-B5-Asp-3COOHF-Aib-Ala-Phe-TriAzLys*3-PyrS2-Phe-34ClF-sAla*3-Ala-NH2 [I-1095] | < 0.05
Ac-PL3-Asp-Ile-B5-Asp-3COOHF-Aib-Ala-Phe-TriAzLys*3-PyrS2-Phe-34ClF-sAla*3-NH2 [I-1094] | < 0.05
Ac-PL3-Asp-Ile-B5-Asp-3COOHF-Aib-Ala-Phe-hGlnR*3-PyrS2-Phe-34ClF-1MeK*3-NH2 [I-1374] | < 0.05
Ac-PL3-Asp-Ile-B5-Asp-3COOHF-Aib-Ala-Phe-hGlnR*3-PyrS2-Phe-34ClF-Lys*3-NH2 [I-1372] | < 0.05
Ac-PL3-Asp-Ile-B5-Asp-3COOHF-Ala-Ala-Phe-Lys*3-PyrS1-Phe-34ClF-GlnR*3-NH2 [I-1698] | < 0.05
Ac-PL3-Asp-Ile-B5-Asp-3COOHF-Ala-Ala-Phe-Lys*3-PyrS2-2MeF-34ClF-GlnR*3-NH2 [I-1510] | 0.2 to 0.75
Ac-PL3-Asp-Ile-B5-Asp-3COOHF-Ala-Ala-Phe-Lys*3-PyrS2-Phe-34ClF-GlnR*3-NH2 [I-1697] | < 0.05
Ac-PL3-Asp-Ile-B5-Asp-3COOHF-Ala-Ala-Phe-TriAzLys*3-PyrS2-Phe-34ClF-sAla*3-NH2 [I-1863] | < 0.05
Ac-PL3-Asp-Ile-B5-Asp-3COOHF-Ala-Ala-Phe-TriAzLys*3-PyrS2-Phe-34ClF-sCH2S*3-NH2 [I-1865] | < 0.05
Ac-PL3-Asp-Ile-B5-Asp-3COOHF-Ala-Ala-Phe-TriAzOrn*3-PyrS2-Phe-34ClF-sCH2S*3-NH2 [I-1867] | < 0.05
Ac-PL3-Asp-Ile-B5-Asp-3COOHF-Ala-Ala-Phe-sAla*3-PyrS2-Phe-34ClF-TriAzLys*3-NH2 [I-1864] | < 0.05
Ac-PL3-Asp-Ile-B5-Asp-3COOHF-Ala-Ala-Phe-sCH2S*3-PyrS2-Phe-34ClF-TriAzLys*3-NH2 [I-1866] | < 0.05
Ac-PL3-Asp-Ile-B5-Asp-3COOHF-Ala-Ala-Phe-sCH2S*3-PyrS2-Phe-34ClF-TriAzOrn*3-NH2 [I-1869] | < 0.05

Substance | IC50 [µM]
Ac-PL3-Asp-Ile-B5-Asp-3COOHF-Cbg-Ala-Phe-Lys*3-PyrS2-3Thi-BztA-GlnR*3-Ala-NH2 [I-856] | < 0.05
Ac-PL3-Asp-Ile-B5-Asp-3COOHF-Cha-Ala-Phe-Lys*3-PyrS2-3Thi-BztA-GlnR*3-Ala-NH2 [I-731] | < 0.05
Ac-PL3-Asp-Ile-B5-Asp-3COOHF-CyLeu-Ala-Phe-Lys*3-PyrS2-2MeF-34ClF-GlnR*3-NH2 [I-1511] | 0.2 to 0.75
Ac-PL3-Asp-Ile-B5-Asp-3COOHF-CyLeu-Ala-Phe-Lys*3-PyrS2-3Thi-34ClF-GlnR*3-NH2 [I-1040] | < 0.05
Ac-PL3-Asp-Ile-B5-Asp-3COOHF-CyLeu-Ala-Phe-Lys*3-PyrS2-3Thi-34ClF-GlnR*3-Val-Glu-Ala-NH2 [I-1266] | < 0.05
Ac-PL3-Asp-Ile-B5-Asp-3COOHF-CyLeu-Ala-Phe-Lys*3-PyrS2-3Thi-34ClF-GlnR*3-Val-Glu-Leu-NH2 [I-1267] | < 0.05
Ac-PL3-Asp-Ile-B5-Asp-3COOHF-CyLeu-Ala-Phe-Lys*3-PyrS2-3Thi-34ClF-GlnR*3-Val-Thr-Ala-NH2 [I-1268] | < 0.05
Ac-PL3-Asp-Ile-B5-Asp-3COOHF-CyLeu-Ala-Phe-Lys*3-PyrS2-3Thi-BztA-GlnR*3-Ala-NH2 [I-730] | < 0.05
Ac-PL3-Asp-Ile-B5-Asp-3COOHF-CyLeu-Ala-Phe-Lys*3-PyrS2-Phe-34ClF-GlnR*3-NH2 [I-1052] | < 0.05
Ac-PL3-Asp-Ile-B5-Asp-3COOHF-CyLeu-Ala-Phe-Lys*3-PyrS2-Phe-34ClF-GlnR*3-Val-Glu-Ala-NH2 [I-1258] | < 0.05
Ac-PL3-Asp-Ile-B5-Asp-3COOHF-CyLeu-Ala-Phe-Lys*3-PyrS2-Phe-34ClF-GlnR*3-Val-Glu-Leu-NH2 [I-1260] | < 0.05
Ac-PL3-Asp-Ile-B5-Asp-3COOHF-CyLeu-Ala-Phe-Lys*3-PyrS2-Phe-34ClF-GlnR*3-Val-Thr-Ala-NH2 [I-1262] | < 0.05
Ac-PL3-Asp-Ile-B5-Asp-3COOHF-CyhLeu-Ala-Phe-Lys*3-PyrS2-3Thi-BztA-GlnR*3-Ala-NH2 [I-849] | < 0.05
Ac-PL3-Asp-Ile-B5-Asp-3COOHF-Dpg-Ala-Phe-Lys*3-PyrS2-3Thi-BztA-GlnR*3-Ala-NH2 [I-975] | < 0.05
Ac-PL3-Asp-Ile-B5-Asp-3COOHF-GlnBDA*3-Ala-Phe-Leu-PyrS2-Phe-34ClF-GlnR*3-NH2 [I-1796] | < 0.05
Ac-PL3-Asp-Ile-B5-Asp-3COOHF-GlnMePDA*3-Ala-Phe-Ala-PyrS2-Phe-34ClF-GlnR*3-NH2 [I-1800] | 0.2 to 0.75
Ac-PL3-Asp-Ile-B5-Asp-3COOHF-GlnMePDA*3-Ala-Phe-Leu-PyrS2-Phe-34ClF-GlnR*3-NH2 [I-1799] | 0.05 to 0.2
Ac-PL3-Asp-Ile-B5-Asp-3COOHF-GlnMePDA*3-Ala-Phe-Val-PyrS2-Phe-34ClF-GlnR*3-NH2 [I-1801] | > 1
Ac-PL3-Asp-Ile-B5-Asp-3COOHF-GlnPDA*3-Ala-Phe-Ala-PyrS2-Phe-34ClF-GlnR*3-NH2 [I-1794] | 0.2 to 0.75
Ac-PL3-Asp-Ile-B5-Asp-3COOHF-GlnPDA*3-Ala-Phe-Leu-PyrS2-Phe-34ClF-GlnR*3-NH2 [I-1793] | 0.05 to 0.2
Ac-PL3-Asp-Ile-B5-Asp-3COOHF-GlnPDA*3-Ala-Phe-Val-PyrS2-Phe-34ClF-GlnR*3-NH2 [I-1795] | 0.2 to 0.75
